Values quoted from earlier work as cited in paper PMC5691641.

The chains behind the UniProt entries cited, without tags or fusion partners.
UniProt Q07812, whole entry: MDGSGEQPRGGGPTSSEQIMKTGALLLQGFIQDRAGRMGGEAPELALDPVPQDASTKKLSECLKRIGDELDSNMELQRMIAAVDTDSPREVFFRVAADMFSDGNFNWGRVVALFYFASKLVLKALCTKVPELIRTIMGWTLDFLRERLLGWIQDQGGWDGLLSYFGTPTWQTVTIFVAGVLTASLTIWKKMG
UniProt O43521, whole entry: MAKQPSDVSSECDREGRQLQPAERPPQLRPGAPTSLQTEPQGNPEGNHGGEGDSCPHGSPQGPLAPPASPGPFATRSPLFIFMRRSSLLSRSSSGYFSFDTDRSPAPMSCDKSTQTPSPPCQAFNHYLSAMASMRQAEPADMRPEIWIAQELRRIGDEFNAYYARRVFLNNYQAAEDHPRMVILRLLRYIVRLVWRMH

Target: Bax (Homo sapiens) (UniProt Q07812)

For Bim (from UniProt O43521), the Kd is given as 3.1 µM.
